Experimental findings from publication PMC6254164, “Synthesis of Novel Hybrid Molecules from Precursors With Known Antiparasitic Activity” (Molecules, 2009) are described below.

The subject of this data set is Hep-2 cells. It counts as cell-based. To be noted: Hep-2 and Vero cells. The method, then: The cytotoxicity of the hybrid compounds and the reference drug, metronidazole, was investigated on Hep-2 and Vero cells using the standard cytotoxicity assay and the trypan blue exclusion method. A cell suspension (10^5 cells/mL RPMI medium-10% inactivated foetal calf serum) was prepared from confluent cultures and 100 µL portions of the suspension were added to the wells of 96-well plates. The cells were incubated for 24 h at 37 °C and 5 % CO2 and the medium in each well was then replaced with fresh 150 µL medium. Solutions of the compounds or the reference drug were prepared and sterilized as described in “Antiamoebic and antigiardial activity” section above. Then, 150 µL-two fold serial dilutions of each of the compounds and the reference drug starting at a concentration of 2000 µg/mL in culture medium were prepared in the plates. After 48 hour incubation at 37 °C and 5 % CO2, the number of cells in each well was determined as follows: The medium in each well was gently replaced with 100 µL of 0.25% (w/v) trypsin-0.53 mM EDTA solution and the plates were incubated for 5 min. at 37 °C to allow cell detachment. Two-hundred microliters of trypan blue solution were added to each well and the plates were, then, placed on ice. The cells were counted in a hemacytometer at the 10X objective. Each compound was assayed in duplicate in each of three independent experiments. […]

For the substance “3-(5-nitrofuran-2-yl)-N-[2-(5-nitroimidazol-1-yl)ethyl]acrylamide [Compound 8]”, the “cytotoxicity at the lethal concentrations against the parasites” value is “non-cytotoxic”.
